In this data set the test system is legumain over-expressing M38L cells. The conditions noted are these: M38L cells incubated with probe, harvested in SDS-sample buffer.

On to “biotin-6-ahx-DEVD-AOMK [reference compound]”, for which the “intracellular protein binding / cell permeability” value is “did not bind any intracellular proteins in these cells or was not cell permeable”.
